## Antibody variant affinities, Ab-95 light chain, assay 2

The measurements come from Engelhart et al. 2022 (doi:10.1038/s41597-022-01779-4) through the FLAb antibody collection.

Binding partner: SARS-CoV-2 spike HR2 peptide, sequence PDVDLGDISGINAS.

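AAYL52 was designed without a model: most single CDR substitutions and a random sample of double and triple ones. The assay is AlphaSeq: two haploid yeast populations carry antibody and antigen on their surface. The frequency of each diploid, read from paired DNA barcodes, reflects how well the two displayed proteins bind. Read counts were normalised to the haploid input and turned into Kd by a linear fit to BCL2-family pairs of known affinity, for each replicate. Mating was done three times.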

Parent scFv Ab-95: VH joined to VL by a (GGGGS)3 linker. Changes lie in the light chain CDRs alone.
VH: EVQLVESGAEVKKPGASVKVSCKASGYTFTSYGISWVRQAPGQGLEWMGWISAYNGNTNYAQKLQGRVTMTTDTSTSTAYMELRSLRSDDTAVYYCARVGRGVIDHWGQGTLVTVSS
VL: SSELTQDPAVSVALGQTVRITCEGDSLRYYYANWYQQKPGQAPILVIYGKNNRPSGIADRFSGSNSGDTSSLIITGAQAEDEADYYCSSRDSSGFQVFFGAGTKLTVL

Positions count from residue 1 of the parent VL; D25P puts P in place of D. Every variant below is changed at Y29 of the VL (sequential numbering). Kd is apparent (estimated from mating counts) and averaged on the log scale over replicates with a signal. Smaller is tighter. "nd" means that the variant was in the library but no mating with the target was seen in any replicate; the authors take this as a sign of poor binding, and no number exists. Three control strains display no target. For library AAYL52, 28% of the pairings with them gave a signal, with a median of 8.2 µM and one signal in twenty below 800 nM, so weak values seen in few replicates may be background.

D25P+Y29F+N33K: 68 µM (2 of 3 replicates).
G24R+Y29E+N51I: nd (0 of 3 replicates).
Y29R+F95Y: 190 nM (3 of 3 replicates).
L27T+Y29P+S55Q: 240 nM (3 of 3 replicates).
Y29D+Y31R+R90H: 42 nM (3 of 3 replicates).
E23K+Y29A+G94K: 47 nM (3 of 3 replicates).
S26I+Y29P+R53L: nd (0 of 3 replicates).
Y29E+Q96W+V97G: 280 nM (3 of 3 replicates).
S26F+Y29E: nd (0 of 3 replicates).
Y29K+Y30L+G94N: 290 nM (3 of 3 replicates).
E23I+Y29A+F98S: 160 nM (3 of 3 replicates).
Y29S+D91G: 78 nM (3 of 3 replicates).
Y29A+R53M+S89H: 7.3 µM (1 of 3 replicates).
G24I+Y29R+F95T: 1.2 µM (2 of 3 replicates).
Y29P+F95W: 3.3 µM (3 of 3 replicates).
E23A+Y29F+N33V: 150 nM (3 of 3 replicates).
Y29T+Y31D+K50H: 3.0 nM (3 of 3 replicates).
Y29H+A32H+V97D: 8.3 µM (3 of 3 replicates).
G24P+Y29C+G94H: nd (0 of 3 replicates).
Y29S+N33R+S92W: 560 µM (1 of 3 replicates).
E23L+S26Q+Y29W: 17 µM (3 of 3 replicates).
Y29W+N51M+N52W: 9.8 µM (2 of 3 replicates).
Y29G+S88H+F95W: 81 nM (3 of 3 replicates).
Y29H+A32T+S55K: 670 nM (3 of 3 replicates).
Y29R+N51E+F98I: 7.9 µM (2 of 3 replicates).
D25L+Y29R: 40 nM (3 of 3 replicates).
E23S+Y29E+Y30G: 4.5 nM (3 of 3 replicates).
Y29M+P54N+F95P: 680 nM (1 of 3 replicates).
Y29Q+G94V: 100 nM (3 of 3 replicates).
Y29Q+G49W+S55C: 96 µM (1 of 3 replicates).
S26H+Y29F+S55E: 220 nM (3 of 3 replicates).
Y29C+K50L+S88F: 6.5 µM (3 of 3 replicates).
Y29P+G49R+N51P: 8.4 µM (3 of 3 replicates).
Y29V+N51M+N52Q: 59 nM (3 of 3 replicates).
Y29W+Y30A+G49D: 790 nM (3 of 3 replicates).
Y29W+N33C+Q96V: nd (0 of 3 replicates).
Y29P+R53V+F98A: 22 µM (2 of 3 replicates).
L27I+Y29C+N52L: 15 µM (3 of 3 replicates).
Y29Q+Y30E+R53T: 110 nM (3 of 3 replicates).
G24V+Y29A+R90S: 4.2 µM (2 of 3 replicates).
Y29Q+S55T+F98M: 3.1 µM (3 of 3 replicates).
Y29C+A32R+F95R: 1.3 µM (1 of 3 replicates).
Y29E+R53A+F95R: 490 nM (3 of 3 replicates).
Y29E+V97W: 900 nM (3 of 3 replicates).
Y29C+A32S+N52G: 7.1 µM (1 of 3 replicates).
E23G+Y29S+P54D: 930 nM (3 of 3 replicates).
Y29Q+R53F+S89Q: 5.3 µM (1 of 3 replicates).
R28F+Y29Q+G94M: 460 nM (3 of 3 replicates).
Y29N+D91P+S92L: 120 nM (3 of 3 replicates).
L27P+R28G+Y29W: 1.1 µM (3 of 3 replicates).
R28I+Y29P+A32H: 600 nM (2 of 3 replicates).
Y29G+K50M: 8.4 nM (3 of 3 replicates).